Results as given in article PMC7429481 (British Journal of Pharmacology, 2020).

The chains behind the UniProt entries cited, without tags or fusion partners. Residues count along the entry.
UniProt P25101, 21-427: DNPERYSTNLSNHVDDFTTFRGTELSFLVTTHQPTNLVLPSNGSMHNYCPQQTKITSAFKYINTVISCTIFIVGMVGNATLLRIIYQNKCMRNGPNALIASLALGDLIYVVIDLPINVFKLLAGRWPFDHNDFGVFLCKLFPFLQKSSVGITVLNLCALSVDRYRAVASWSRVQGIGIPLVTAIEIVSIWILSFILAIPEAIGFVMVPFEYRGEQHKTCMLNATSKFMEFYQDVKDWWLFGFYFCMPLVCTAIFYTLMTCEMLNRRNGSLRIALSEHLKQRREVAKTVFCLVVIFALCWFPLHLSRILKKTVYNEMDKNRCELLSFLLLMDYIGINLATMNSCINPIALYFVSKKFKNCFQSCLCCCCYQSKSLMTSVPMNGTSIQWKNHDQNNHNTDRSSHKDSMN

Biological target: SmBiT‐tagged endothelin A receptor (Homo sapiens, UniProt P25101)
Assay: mini‐Gq recruitment to endothelin A receptor by NanoBiT complementation
Details: ET1 1 µM, HEK293T, n = 4

Q: With endothelin‐1 as the substance, how does the “mini‐Gq recruitment response to endothelin A receptor” value read?
A: robust
